# From patent EP4821925A2, “MRGPRX2 ANTAGONIST AND USE THEREOF” (dated 2026)
# Chains of the proteins cited; added tags and fusions are not shown.
# UniProt O95342, whole entry: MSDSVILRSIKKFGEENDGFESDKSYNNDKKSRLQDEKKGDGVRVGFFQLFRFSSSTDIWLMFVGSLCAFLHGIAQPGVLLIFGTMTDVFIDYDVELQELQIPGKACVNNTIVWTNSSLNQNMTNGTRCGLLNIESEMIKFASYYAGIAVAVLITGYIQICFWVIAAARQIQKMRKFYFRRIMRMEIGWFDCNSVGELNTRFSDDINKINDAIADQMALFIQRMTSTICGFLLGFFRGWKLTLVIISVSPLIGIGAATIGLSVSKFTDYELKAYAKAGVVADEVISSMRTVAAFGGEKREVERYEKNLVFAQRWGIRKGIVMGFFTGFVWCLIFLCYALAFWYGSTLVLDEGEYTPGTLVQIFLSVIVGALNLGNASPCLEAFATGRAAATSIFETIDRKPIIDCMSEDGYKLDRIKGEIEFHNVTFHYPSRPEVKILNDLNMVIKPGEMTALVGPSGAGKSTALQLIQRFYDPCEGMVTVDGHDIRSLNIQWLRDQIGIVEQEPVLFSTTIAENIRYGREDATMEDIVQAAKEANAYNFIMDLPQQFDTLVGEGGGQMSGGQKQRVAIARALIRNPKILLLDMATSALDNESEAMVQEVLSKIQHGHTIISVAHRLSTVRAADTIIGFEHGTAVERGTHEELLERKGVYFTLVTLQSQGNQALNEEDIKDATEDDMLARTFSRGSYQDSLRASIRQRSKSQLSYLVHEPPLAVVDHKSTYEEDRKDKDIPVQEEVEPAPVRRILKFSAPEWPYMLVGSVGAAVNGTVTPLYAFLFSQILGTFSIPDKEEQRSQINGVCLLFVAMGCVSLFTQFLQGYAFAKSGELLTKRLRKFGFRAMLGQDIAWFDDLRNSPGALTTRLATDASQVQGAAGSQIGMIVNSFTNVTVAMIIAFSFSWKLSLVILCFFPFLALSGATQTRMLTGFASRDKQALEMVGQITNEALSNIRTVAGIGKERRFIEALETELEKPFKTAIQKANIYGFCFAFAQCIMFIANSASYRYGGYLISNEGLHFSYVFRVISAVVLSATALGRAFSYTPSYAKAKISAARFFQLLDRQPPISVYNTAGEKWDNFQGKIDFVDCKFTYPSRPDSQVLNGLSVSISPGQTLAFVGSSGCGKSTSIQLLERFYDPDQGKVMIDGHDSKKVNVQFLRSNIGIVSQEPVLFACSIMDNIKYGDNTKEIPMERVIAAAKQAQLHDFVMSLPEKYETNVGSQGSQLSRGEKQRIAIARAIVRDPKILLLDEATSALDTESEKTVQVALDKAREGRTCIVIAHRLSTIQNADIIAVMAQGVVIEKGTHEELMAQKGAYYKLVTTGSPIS
# UniProt Q96LB1, whole entry: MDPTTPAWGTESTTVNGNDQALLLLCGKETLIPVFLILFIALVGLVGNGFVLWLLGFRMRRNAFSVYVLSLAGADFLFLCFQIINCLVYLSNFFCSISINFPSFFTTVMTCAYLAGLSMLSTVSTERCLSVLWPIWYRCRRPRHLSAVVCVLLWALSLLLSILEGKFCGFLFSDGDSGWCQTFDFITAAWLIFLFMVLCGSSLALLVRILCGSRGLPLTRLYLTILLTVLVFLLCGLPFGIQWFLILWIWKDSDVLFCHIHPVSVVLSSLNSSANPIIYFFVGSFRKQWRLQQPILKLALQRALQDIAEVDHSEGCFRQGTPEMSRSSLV
# How the values were obtained:
# [1] = molecular target: human BSEP (Homo sapiens, UniProt O95342); experiment: Assay for inhibitory effect on BSEP (vesicle transport); conditions: vesicle expressing human BSEP, probe substrate transport, 37 °C
# Protocol: The assay for the inhibitory effect on bile salt export pump (BSEP) by the compounds was performed using a vesicle expressing human BSEP (GenoMembrane). The compounds at different concentrations were pre-incubated with the vesicle for 5 min, with a negative control (NC) group and a positive control (PC) group set up. The NC group involved pre-incubation of the vesicle with blank buffer at 37 °C for 5 min, and the PC group involved pre-incubation of the vesicle with a positive inhibitor at 37 °C for 5 min. Subsequently, with the addition ofATP or AMP separately, the mixture was incubated with the probe substrate at 37 °C for 5 min. The assay was terminated using pre-cooled Buffer B1 (10 × Buffer B1 (Stopping and Washing Buffer): 100 mM Hepes-Tris, 1000 mM KNO3, 500 mM Sucrose). The test samples were transferred to a 96-well filter plate, subjected to suction filtration by a vacuum pump, and then washed 5 times with 0.2 mL of pre-cooled Buffer B1. 50 µL of 80% methanol was used to dissolve the vesicles on the filter plate. After collection, the mixture was centrifuged at 2000 rpm for 2 min to collect the filtrate, and the process was repeated once. The two filtrates were combined and mixed well to obtain approximately 100 µL of filtrate. Pre-cooled methanol containing an internal standard was added, and the mixture was centrifuged at 12,000 rpm for 5 min. The supernatant was collected for LC-MS/MS quantification analysis to detect the amount of substrate transported. The concentration of the compound was plotted on the X axis, and the relative activity (% of NC) was plotted on the Y axis. The IC50 value and the inhibition rate of the compound on inhibiting bile salt export pump activity were calculated using Prism software.
# The transport rate (activity) and relative activity under different conditions were calculated according to the following formulas: Substrate active transport rate (pmol/min/mg) =; (transport amount of substrate driven by ATP−average transport amount of substrate driven by AMP (pmol))/(incubation time (min) × vesicle protein amount (mg)) [formula] Relative activity (%ofNC) = (transport activity of PC sample or test sample)/(transport activity of NC sample)% [formula] Table 6. Inhibitory effect of test compounds on BSEP
# [2] = molecular target: T1, human MRGPRX2 (Homo sapiens, UniProt Q96LB1); experiment: MRGPRX2 in vitro calcium flux assay; conditions: CHO stably-transfected cell line highly expressing human MRGPRX2; agonist C48/80; FLIPR fluorescence
# Protocol: The antagonistic effect of the compounds on MRGPRX2 was determined in a CHO stably-transfected cell line that highly expresses human MRGPRX2. 18 h before the assay, cells were seeded in a black-wall transparent base plate containing DMEM/F12 (1:1) medium at a specific density and incubated at 37 °C with 5% CO2 for 18 h. Then, an appropriate amount of dye solution was added to each well, and the cells were incubated for another 30 min in the incubator at 37 °C in the dark. The cells were further incubated for 10 min at room temperature in the dark. Subsequently, the compounds at different final concentrations were added to each well and equilibrated for 20 min. Finally, a certain amount of C48/80 solution was added to the cells, and fluorescence signals were measured using FLIPR. The concentration of the compound was plotted on the X-axis, and the fluorescence signal value was plotted on the Y-axis. The antagonistic effect (IC50 value) of the compound was calculated using GraphPad Prism 8.0 software. A denotes an IC50 value ≤ 100 nM, B denotes 100 nM < IC50 value ≤ 500 nM, and C denotes an IC50 value greater than 500 nM.
# [3] = molecular target: T1, human MRGPRX2; experiment: MRGPRX2 in vitro IP-1 assay; conditions: CHO stably-transfected cell line highly expressing human MRGPRX2; agonist Cortistatin-14; IP-1 readout 665 nm/620 nm
# Protocol: The antagonistic effect of the compounds on MRGPRX2 was determined in a CHO stably-transfected cell line that highly expresses human MRGPRX2. The drugs prepared by serial dilution with DMSO were added to a micropore plate, and the stably-transfected cells were treated with trypsin. The cells were collected, counted, and then seeded into the microplate, and the microplate was incubated at 37 °C for 10 min. Cortistatin-14 solution at a specific concentration was added, and the cells were centrifuged and then incubated at 37 °C for 60 min. After the incubation was completed, diluted d2-IP1 and Anti-IP 1-Cryptate were added to each well. The cells were centrifuged and then left to stand at room temperature for 1 h. After the incubation was completed, the fluorescence readings at 665 nm and 620 nm were obtained. The concentration of the compound was plotted on the X-axis, and the fluorescence signal ratio was plotted on the Y-axis. The antagonistic effect (IC50 value) of the compound was calculated using Graphpad software. Table 2: MRGPRX2 IP-1 assay results
# [4] = tested on: HepG2 cells; experiment: Hepatotoxicity assay (HepG2 cell viability, CellTiter-Glo); conditions: inhibition of viability of HepG2 cells, 72 h
# Protocol: The hepatotoxicity assay for the compounds was performed using HepG2 (ATCC, HB-8065) cells. Cell viability was determined using a CellTiter-Glo Luminescent Cell Viability Assay kit (Promega, G7573), and the toxicity of the compounds was characterized by the inhibition of viability of HepG2 cells. HepG2 cells in the logarithmic growth phase were collected, the concentration of the cell suspension was adjusted, and then the cells were plated on a 96-well cell culture plate at 5000 cells/well. The cells were incubated in a cell incubator with 5% CO2 at 37 °C overnight, and the next day, medium change was performed, and compound solutions at different concentrations were added. Meanwhile, a negative control group (cells + DMSO) and a blank control group (medium + DMSO) were set, and the cells were incubated in the cell incubator with 5% CO2 at 37 °C for 72 h. After the treatment was completed, procedures were performed according to the instructions of the kit, and luminescence signal values in different wells were measured using an EnVision plate reader (2104). The inhibition of the viability of HepG2 cells by the compounds at different concentrations was calculated according to the following formula. The concentration of the compound was plotted on the X-axis, and the inhibition rate was plotted on the Y-axis. The toxic effect (IC50 value) of the compound on HepG2 was calculated using GraphPad Prism 8.0 software. Inhibition rate (%) = (1−(signal value of each compound group−signal value of blank control group)/(signal value of negative control group−signal value of blank control group)) × 100% [formula] Table 3: Assay results of toxicity on HepG2
# [5] = Pharmacokinetic assay in mice; conditions: oral intragastric administration, 10 mg/kg, plasma
# Protocol: (§1) Pharmacokinetic assay in mice was performed, and the mice used were male ICR mice weighing 20-25 g and fasted overnight. Three mice were used, and oral intragastric administration was performed at a dose of 10 mg/kg. Blood was collected before administration and at 15 min, 30 min and 1 h, 2 h, 4 h, 8 h, and 24 h after administration. The blood samples were centrifuged at 6800 g at 2-8 °C for 6 min, and plasma was collected and stored at -80 °C. The plasma at each time point was taken, and 3-5 times its amount of an acetonitrile solution containing an internal standard was added for mixing. The mixture was vortexed for 1 min and then centrifuged at 13000 rpm at 4 °C for 10 min. The supernatant was taken, and 3 times its amount of water was added for mixing. An appropriate amount of the resulting mixture was taken for LC-MS/MS analysis. The major pharmacokinetic parameters were analyzed using a non-compartmental model in the WinNonlin 7.0 software. Table 4. Results of pharmacokinetic assay in mice
# [6] = Pharmacokinetic assay in rats; conditions: oral intragastric administration, 10 mg/kg, plasma
# Protocol: as §1, with “rats” for “mice”, “SD rats” for “ICR mice”, “180-240” for “20-25”, “5.” for “4.”
# [7] = Human liver microsome stability assay; conditions: human liver microsomes, NADPH, 37 °C
# Protocol: The human liver microsome stability assay was performed by co-incubating the compounds with human liver microsomes in vitro. Test compounds were first prepared as 10 mM stock solutions in DMSO solvent, followed by dilution of the compounds to 0.5 mM using acetonitrile. Human liver microsomes (Corning) were diluted with PBS to form a microsome/buffer solution, and 0.5 mM compound was diluted with this solution to form a working solution with a compound concentration of 1.5 µM and a human liver microsome concentration of 0.75 mg/mL. A deep-well plate was used, and 30 µL of the working solution was added to each well. Subsequently, 15 µL of pre-warmed 6 mM NADPH solution was added to start the reaction, and the plate was incubated at 37 °C. Reactions were terminated by adding 135 µL of acetonitrile to the corresponding wells at 0, 5, 15, 30, and 45 min of incubation. After the reaction was terminated with acetonitrile at the last 45 min time point, the deep-well plate was vortexed for 10 min (600 rpm/min) and then centrifuged for 15 min. The supernatant was collected after centrifugation, and purified water was added at a ratio of 1:1 for LC-MS/MS analysis to obtain the ratio of peak area of compound to peak area of internal standard at each time point. The peak area ratios of the compounds at 5, 15, 30, and 45 min were compared with the peak area ratio thereof at 0 min, and the remaining percentage of compounds at each time point was calculated. T1/2 was calculated using Graphpad 5 software. Table 8. Human liver microsome stability data for the compounds
SMILES,IC50 [1] [nM],IC50 [2] [nM],IC50 [3] [nM],IC50 [4] [nM],AUC0-t [5] [ng·h/mL],Cmax [5] [ng/mL],AUC0-t [6] [ng·h/mL],Cmax [6] [ng/mL],"Half-life (T1/2, min) [7] [min]"
N#Cc1ccc(NC2CCC(NC(=O)c3cnn(CC(F)(F)F)c3)CC2)cc1C(F)(F)F (stereo not drawn),3800,,,,,,,,
Cn1nc(N[C@H]2CC[C@@H](NC(=O)c3cn(CC(C)(C)O)nc3Cl)CC2)cc(C(F)(F)F)c1=O,> 100000,100 to 500,364,> 100000,,,,,
Cn1nc(N[C@H]2CC[C@@H](NC(=O)c3cn(CC(F)(F)F)nc3Cl)CC2)cc(C(F)F)c1=O,,< 100,85,,,,,,
Cn1nc(N[C@H]2CC[C@@H](NC(=O)c3cn(CC(F)F)nc3Cl)CC2)cc(C(F)(F)F)c1=O,> 100000,100 to 500,161,> 100000,,,,,
Cn1cc(C(=O)N[C@@H]2CCC[C@H](Nc3nn(CC(F)(F)F)c(=O)c4ccc(Cl)cc34)C2)cn1,65000,100 to 500,,,,,,,
Cn1cc(C(=O)N[C@@H]2CCC[C@H](Nc3cc(C(F)(F)F)nc4sc(Cl)cc34)C2)cn1,,100 to 500,,,,,,,
CCn1nc(N[C@H]2CC[C@@H](NC(=O)c3cn(CC(F)(F)F)nc3Cl)CC2)cc(C(F)(F)F)c1=O,,100 to 500,137,> 100000,,,,,
O=C(N[C@H]1CC[C@@H](Nc2cc(C(F)(F)F)c(=O)n(CC(F)(F)F)n2)CC1)c1cn(CC(F)(F)F)nc1Cl,,< 100,52,,45500,6624,69406,7670,560
Cn1nc(N[C@H]2CC[C@@H](NC(=O)c3cn(CC(F)(F)F)nc3F)CC2)cc(C(F)(F)F)c1=O,88000,< 100,86,,,,37434,4545,422
Cn1cc(C(=O)N[C@H]2CC[C@@H](Nc3cc(C(F)(F)F)c(=O)n(C)n3)CC2)c(Cl)n1,,,,> 100000,,,,,
CC(n1cc(C(=O)N[C@H]2CC[C@@H](Nc3cc(C(F)(F)F)c(=O)n(C)n3)CC2)c(Cl)n1)S(C)(=O)=O (stereo partly drawn),> 100000,100 to 500,224,> 100000,,,,,
O=C(N[C@H]1CC[C@@H](Nc2cc(C(F)(F)F)c(=O)n(C3CC3)n2)CC1)c1cn(CC(F)(F)F)nc1Cl,,< 100,10,,33271,7407,,,
Cn1nc(N[C@H]2CC[C@@H](NC(=O)c3cnn(CC(F)(F)F)c3)CC2)cc(C(F)(F)F)c1=O,77000,,,> 100000,,,24330,3822,220
Cn1nc(N[C@H]2CC[C@@H](NC(=O)c3ccc(F)cc3)CC2)cc(C(F)(F)F)c1=O,,< 100,75,> 100000,29680,4045,,,355
Cn1cc(C(=O)N[C@@H]2CCC[C@H](Nc3cc(C(F)(F)F)nc4cc(Cl)sc34)C2)cn1,,100 to 500,,,,,,,
